pIC50: −log10 of the molar value. Like-named read-outs stand apart in the source and are kept apart here.
Target: T1, human EGF receptor (Homo sapiens, UniProt P00533)
T1 construct: expressed in transfected cells; host or cells: NIH3T3 clone C7 (EGFR/C7; mouse fibroblasts)
Assay: EGF-receptor whole cell kinase assay (EGFR-3T3)
Format: cell-based
Text: This example illustrates the ability of the exemplary compounds to inhibit receptor tyrosine kinases, such as HER2 and/or EGFR. The following target cells were used for cellular kinaseassays: NIH3T3 clone C7 (Honegger et al., supra) engineered to over-express human EGF receptor; NIH3T3 cells engineered to over-express a chimeric receptor containing the EGFR extracellular domain and the HER2 intracellular kinase domain; the human mammary carcinoma line BT474 (ATCC HTB2) expressing HER2; and the human glioblastoma line U1242 that expresses PDGFR-β. Growth assays were carried out using human mammary epithelial SKBR3 (ATCC HTB30) cells, SKOV3 (ATCC HTB77) human ovarian cancer cell line, A431 cells, MCF7 human breast carcinoma cells, MCF7 cells overexpress the HER2 kinase (MCF7-HER2), NIH3T3 cells, and NIH3T3 cells overexpressing the HER2 kinase (3T3-HER2).
Unless otherwise stated the effect of various compounds on receptor tyrosine kinases were assayed as described in this section.
1. EGF-receptor Whole Cell Kinase Assay
EGFR kinase activity (EGFR-3T3 assay) in whole cells was measured as described below:
The following protocol was used:
A. Coat ELISA plates (Corning, 96 well, Cat. #25805-96) with 05-101 antibody at 0.5 μg per well in PBS, 150 μl final volume/well, and store overnight at 4° C. Coated plates are good for up to 10 days when stored at 4° C. […]

By UniProt entry, the sequences of proteins in these tests, tags left out. Residues count along the entry.
UniProt P00533, 25-1210: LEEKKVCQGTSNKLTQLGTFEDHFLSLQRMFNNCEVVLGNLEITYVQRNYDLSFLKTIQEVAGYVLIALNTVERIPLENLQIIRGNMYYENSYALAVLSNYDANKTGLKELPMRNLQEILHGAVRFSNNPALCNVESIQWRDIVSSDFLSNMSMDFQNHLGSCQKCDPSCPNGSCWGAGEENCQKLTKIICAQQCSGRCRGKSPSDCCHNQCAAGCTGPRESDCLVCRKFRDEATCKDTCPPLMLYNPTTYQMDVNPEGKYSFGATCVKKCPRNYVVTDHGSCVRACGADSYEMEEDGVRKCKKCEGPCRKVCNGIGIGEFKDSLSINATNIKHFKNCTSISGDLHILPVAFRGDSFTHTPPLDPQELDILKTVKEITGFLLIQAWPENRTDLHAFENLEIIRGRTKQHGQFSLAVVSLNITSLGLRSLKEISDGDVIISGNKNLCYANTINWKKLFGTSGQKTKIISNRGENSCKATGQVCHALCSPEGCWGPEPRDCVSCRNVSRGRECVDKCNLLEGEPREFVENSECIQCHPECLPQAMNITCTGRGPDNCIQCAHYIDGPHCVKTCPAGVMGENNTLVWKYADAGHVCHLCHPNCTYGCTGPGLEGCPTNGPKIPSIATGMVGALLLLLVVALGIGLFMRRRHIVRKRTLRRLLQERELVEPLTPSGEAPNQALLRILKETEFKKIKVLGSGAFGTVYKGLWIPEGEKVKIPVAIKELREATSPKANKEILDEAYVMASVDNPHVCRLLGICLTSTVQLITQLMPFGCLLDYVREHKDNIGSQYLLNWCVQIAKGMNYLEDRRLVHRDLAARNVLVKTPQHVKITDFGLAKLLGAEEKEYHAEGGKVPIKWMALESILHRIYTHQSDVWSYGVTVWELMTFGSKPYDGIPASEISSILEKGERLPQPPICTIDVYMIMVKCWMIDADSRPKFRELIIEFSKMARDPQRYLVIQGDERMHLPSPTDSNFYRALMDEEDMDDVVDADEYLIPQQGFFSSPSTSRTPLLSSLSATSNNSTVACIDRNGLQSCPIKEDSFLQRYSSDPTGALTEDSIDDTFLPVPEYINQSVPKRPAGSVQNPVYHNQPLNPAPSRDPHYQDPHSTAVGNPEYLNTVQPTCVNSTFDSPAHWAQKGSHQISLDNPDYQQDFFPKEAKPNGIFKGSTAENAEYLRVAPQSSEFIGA

pIC50 (Table III, cellular kinase assay, class symbol, read-out: EGFR): > 4.30
pIC50 (Table V, read-out: Estimated IC50 Cellular Kinase Assays EGFR (EGF-3T3)): 8.52
Compound: COc1cc2ncnc(Nc3cccc(Cl)c3)c2cc1OC [Compound P13a]

From patent publication US6596878B2, “Methods and compositions for inhibiting cell proliferative disorders” (Yissum Research & Development Company of the Hebrew …, priority 1994, dated 2003)
